Data published in patent US5698710A, “Tachykinins antagonists” (A. Menarini Industrie Farmaceutiche Riunite S.r.l., priority 1994, dated 1997).
pKd: −log10 of the molar value.

By UniProt entry, the sequences of proteins in these tests, tags left out.
UniProt P25103, whole entry: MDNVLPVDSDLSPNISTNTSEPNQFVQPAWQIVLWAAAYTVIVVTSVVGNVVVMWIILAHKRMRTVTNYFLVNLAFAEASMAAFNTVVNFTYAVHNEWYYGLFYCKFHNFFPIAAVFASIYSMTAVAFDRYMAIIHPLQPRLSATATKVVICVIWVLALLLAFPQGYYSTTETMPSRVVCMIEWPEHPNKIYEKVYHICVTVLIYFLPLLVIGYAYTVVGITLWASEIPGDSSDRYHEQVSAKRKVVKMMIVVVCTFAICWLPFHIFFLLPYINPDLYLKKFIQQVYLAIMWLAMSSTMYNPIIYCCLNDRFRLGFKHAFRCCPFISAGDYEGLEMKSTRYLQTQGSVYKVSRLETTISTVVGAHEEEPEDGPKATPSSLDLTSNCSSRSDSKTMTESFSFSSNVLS

Biological target: T1, NK1 receptors (Homo sapiens, UniProt P25103)
T1 construct: endogenous in cells; host or cells: IM9 cells (intact)
Experiment: [^3 H]SP saturation experiments in IM9 cells
Format: binding
Conditions: [^3 H]SP radioligand, read-out: average value of Kd calculated in saturation experiments
Protocol: The evaluation of the antagonist acivity of NK1 receptors was performed with binding and functional tests.
[^3 H]SP Binding Assay in IM9 Cell Line
The assay was carried out on intact cells as described by Payan et al. (1984). The cells were washed with buffer A at pH 7.5 containing (in mM) Tris-HCl 50, NaCl 150 and 0.02% BSA, thereafter were resuspended in a dosage buffer (buffer A added with protease inhibitors), concentration 1×10^7 cells/ml. The cells were incubated with [^3 H]SP in a final volume of 0.5 ml for 60' at room temperature. The non-specific binding was calculated in the presence of […] of non-radioactive SP. The dosage mixture was poured in test tubes for microcentrifugation which were preadsorbed in a solution of BSA 0.5% for at least 3 hours. [^3 H]SP, free and binded, was separated by cell sedimentation with a microcentrifuge (6 min at 12000 g); the supernatant was removed by aspiration. For competitive tests, The cells IM9 were incubated in triplicate with 0.3 nM of [^3 H]SP (average value of Kd calculated in saturation experiments) and the competitive ligands were added at six different concentrations (with dilution 1:10 in the dosage buffer) in order to obtain a complete competition curve. The affinity was measured as pKi.

Substance “[^3 H]SP: tritiated Substance P (SP), radioligand of the IM9 binding assay” has a pKd of 9.52.
